US20050002859A1, “COX-2-targeted imaging agents” (Vanderbilt University, priority 2003, published 2005)

Amino acid sequences for entries named in this document (tags omitted).
UniProt P08684, whole entry: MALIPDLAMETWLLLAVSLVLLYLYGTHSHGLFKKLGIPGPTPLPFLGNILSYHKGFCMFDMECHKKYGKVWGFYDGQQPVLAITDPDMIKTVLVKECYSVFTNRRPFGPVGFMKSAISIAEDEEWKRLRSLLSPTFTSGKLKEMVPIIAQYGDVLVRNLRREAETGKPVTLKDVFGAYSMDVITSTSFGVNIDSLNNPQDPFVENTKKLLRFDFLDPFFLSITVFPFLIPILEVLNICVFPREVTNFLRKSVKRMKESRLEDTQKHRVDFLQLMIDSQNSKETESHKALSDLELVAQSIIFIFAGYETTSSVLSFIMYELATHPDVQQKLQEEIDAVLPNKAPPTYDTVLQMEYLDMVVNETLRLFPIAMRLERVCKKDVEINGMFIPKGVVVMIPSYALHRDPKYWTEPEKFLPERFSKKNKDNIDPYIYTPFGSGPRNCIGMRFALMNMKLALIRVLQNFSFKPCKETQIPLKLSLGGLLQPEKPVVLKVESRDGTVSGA
UniProt P10635, whole entry: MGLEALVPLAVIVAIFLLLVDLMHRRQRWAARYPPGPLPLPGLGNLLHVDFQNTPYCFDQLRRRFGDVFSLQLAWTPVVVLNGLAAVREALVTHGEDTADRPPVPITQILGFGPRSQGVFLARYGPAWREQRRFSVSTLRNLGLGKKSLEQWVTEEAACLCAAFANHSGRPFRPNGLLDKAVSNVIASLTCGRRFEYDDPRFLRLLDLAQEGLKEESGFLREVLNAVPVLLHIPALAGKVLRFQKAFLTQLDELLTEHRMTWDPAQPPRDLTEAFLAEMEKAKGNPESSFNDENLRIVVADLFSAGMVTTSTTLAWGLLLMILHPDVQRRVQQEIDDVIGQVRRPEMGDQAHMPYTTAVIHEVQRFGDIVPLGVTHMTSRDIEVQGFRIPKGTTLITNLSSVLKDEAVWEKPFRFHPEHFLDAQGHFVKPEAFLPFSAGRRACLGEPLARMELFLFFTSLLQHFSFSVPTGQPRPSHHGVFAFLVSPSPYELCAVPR

What was measured:
[1] = Metabolism by mouse liver microsomes; format: in vitro ADME; conditions: 0.125 mg/mL protein
[2] = Metabolism by human liver microsomes; format: in vitro ADME; conditions: 0.125 mg/mL protein
CYP3A4 = CYP3A4 (Homo sapiens, UniProt P08684); experiment: P450 isoform studies (specific inhibitors, purified recombinant enzymes): side chain hydroxylation; format: in vitro ADME
[3] = Metabolism by rat liver microsomes; format: in vitro ADME; conditions: 0.125 mg/mL protein
[4] = tested on: rat carageenan footpad edema; experiment: Rat carageenan footpad edema model; format: in vivo; conditions: rat carageenan footpad model (Example 14)
CYP2D6 = CYP2D6 (Homo sapiens, UniProt P10635); experiment: P450 isoform studies (specific inhibitors, purified recombinant enzymes): O-demethylation; format: in vitro ADME

| half-life, mouse liver microsomes [1] [min] | half-life, human liver microsomes [2] [min] | enzyme catalyzing side chain hydroxylation (CYP3A4) | half-life, rat liver microsomes [3] [min] | enzyme catalyzing O-demethylation (CYP2D6) | SMILES | ED50 [4] [mg/kg] |
| --- | --- | --- | --- | --- | --- | --- |
| 51 | 21 | CYP3A4 | 11 | CYP2D6 | COc1ccc2c(c1)c(CC(=O)NCCc1ccccc1)c(C)n2C(=O)c1ccc(Cl)cc1 | 0.8 |
|  |  |  | 75 |  | COc1ccc2c(c1)c(CC(=O)Nc1cccnc1)c(C)n2C(=O)c1ccc(Cl)cc1 |  |
